Experimental findings from patent publication US11998613B2, “Antibody-drug conjugates containing an anti-mesothelin antibody and uses thereof” (DEVELOPMENT CENTER FOR BIOTECHNOLOGY, priority 2020, dated 2024) are described below.

By UniProt entry, the sequences of proteins in these tests, tags left out. Chains listed by the source or under a name are the forms on record and can include a tag or linker.
UniProt Q13421, with tags, fused parts or gaps: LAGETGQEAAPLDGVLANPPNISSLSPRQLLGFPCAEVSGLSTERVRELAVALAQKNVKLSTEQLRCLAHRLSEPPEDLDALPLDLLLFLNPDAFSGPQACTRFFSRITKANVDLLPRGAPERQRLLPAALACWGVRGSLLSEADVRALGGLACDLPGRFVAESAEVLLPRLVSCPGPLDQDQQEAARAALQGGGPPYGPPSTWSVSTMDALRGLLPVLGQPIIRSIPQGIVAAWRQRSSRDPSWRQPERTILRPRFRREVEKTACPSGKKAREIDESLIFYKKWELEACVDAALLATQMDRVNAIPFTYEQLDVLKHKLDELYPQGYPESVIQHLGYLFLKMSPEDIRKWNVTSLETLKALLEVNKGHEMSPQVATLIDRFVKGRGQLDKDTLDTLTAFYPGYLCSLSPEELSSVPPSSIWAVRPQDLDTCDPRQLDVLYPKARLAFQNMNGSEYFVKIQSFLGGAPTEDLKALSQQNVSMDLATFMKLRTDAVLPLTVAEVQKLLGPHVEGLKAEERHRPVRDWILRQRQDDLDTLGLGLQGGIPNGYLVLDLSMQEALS

Test [1] has as its target T1, mesothelin protein (Homo sapiens, UniProt Q13421). The test can be described thus: Determination of antibody binding affinity by ELISA. Conditions: plate coated with mesothelin protein; non-linear regression. The procedure:
ELISA plates were coated with 1˜2 μg/100 μl per well of mesothelin protein. Wells were rinsed for 3 times with PBS and blocked with 300 μl 5% MPBS per well for 2 hr at 37° C. After washing with PBS, wells were incubated with serial diluted mesothelin antibodies in 5% MPBS for 1.5 hours at 37° C. The plates were washed and goat polyclonal anti-human IgG-HRP antibody (1:10,000) (Jackson ImmunoResearch) was added into each well. The absorbance was measured as described above and the binding affinities of antibodies were calculated by non-linear regression with Prism software (GraphPad).
For orientation: In an ELISA, binding on a coated surface is turned into a signal by an enzyme label.

In test [2] the target is T1, mesothelin protein. The experiment in a line: Affinity measurements and kinetic analysis using BIAcore (SPR), mesothelin immobilised. The format is binding. Conditions: BIAcore T200, 25 degree C, 1:1 Langmuir model. The procedure:
To know the biding kinetics difference among individual antibodies, surface plasmon resonance (SPR) measurement with a BIAcore T200 (Cytiva Inc.) was used as previously described (Karlsson & Falt, (1997) J. Immunol Methods 200:121-133). Carboxymethylated dextran biosensor chips (CM5, Cytiva Inc.) were activated with N-ethyl-N′-(3-dimethylaminopropyl)-carbodiimide hydrochloride (EDC) and N-hydroxysuccinimide (NHS) according to the supplier's instructions. Mesothelin protein was diluted with 10 mM sodium acetate, pH 4.0, into 5 μg/ml before injection at a flow rate of 10 μL/minute to achieve approximately 1500 response units (RU) of coupled protein followed by the injection of 1M ethanolamine to block unreacted groups. For kinetics measurements, two-fold serial dilutions of anti-mesothelin mAb (0.3125 nM to 40 nM) were injected in HBS-EP+ Biacore running buffer provided by the manufacturer (Cytiva Inc.) at 25 degree C. at a flow rate of 30 μL/min, and binding responses on the mesothelin protein were corrected by subtraction of responses on a blank flow cell. Association rates (kon or ka) and dissociation rates (koff or kd) were calculated using a simple one-to-one Langmuir binding model with separate fittings of kon and koff was used. (Cytiva.™. Biacore Insight Evaluation Software).

What is called Kd is the concentration at which binding is half-saturated. Low values mean higher affinity, high ones lower affinity.

On to “SS1: mouse anti-mesothelin antibody clone SS1, SEQ ID NOs: 7 and 8, of U.S. Pat. No. 7,081,518 B1; expressed as human Fc chimera”, for which the Kd amounted to 0.0836 nM in test [1] and 3.5 pM in test [2].
